These results are taken from patent US8609708B2 (Human BioMolecular Research Institute, priority 2003, dated 2013).

The chains behind the UniProt entries cited, without tags or fusion partners. Where a name states a change or a piece, a line headed by the entry shows the natural chain unless it says otherwise.
UniProt P11509: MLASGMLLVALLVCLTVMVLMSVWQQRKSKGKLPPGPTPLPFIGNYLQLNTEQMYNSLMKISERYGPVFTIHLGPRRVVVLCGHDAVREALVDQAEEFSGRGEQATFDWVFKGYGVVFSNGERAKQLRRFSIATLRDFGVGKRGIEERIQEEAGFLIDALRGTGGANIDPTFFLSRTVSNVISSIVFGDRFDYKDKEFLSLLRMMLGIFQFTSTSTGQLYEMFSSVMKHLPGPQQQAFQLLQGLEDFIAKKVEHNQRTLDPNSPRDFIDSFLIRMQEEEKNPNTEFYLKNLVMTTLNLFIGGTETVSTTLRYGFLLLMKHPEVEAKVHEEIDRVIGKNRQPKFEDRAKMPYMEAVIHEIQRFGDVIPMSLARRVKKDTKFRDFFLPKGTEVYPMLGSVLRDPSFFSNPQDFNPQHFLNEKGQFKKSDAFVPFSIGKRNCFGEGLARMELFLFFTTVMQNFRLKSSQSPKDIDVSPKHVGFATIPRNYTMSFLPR
UniProt P20813: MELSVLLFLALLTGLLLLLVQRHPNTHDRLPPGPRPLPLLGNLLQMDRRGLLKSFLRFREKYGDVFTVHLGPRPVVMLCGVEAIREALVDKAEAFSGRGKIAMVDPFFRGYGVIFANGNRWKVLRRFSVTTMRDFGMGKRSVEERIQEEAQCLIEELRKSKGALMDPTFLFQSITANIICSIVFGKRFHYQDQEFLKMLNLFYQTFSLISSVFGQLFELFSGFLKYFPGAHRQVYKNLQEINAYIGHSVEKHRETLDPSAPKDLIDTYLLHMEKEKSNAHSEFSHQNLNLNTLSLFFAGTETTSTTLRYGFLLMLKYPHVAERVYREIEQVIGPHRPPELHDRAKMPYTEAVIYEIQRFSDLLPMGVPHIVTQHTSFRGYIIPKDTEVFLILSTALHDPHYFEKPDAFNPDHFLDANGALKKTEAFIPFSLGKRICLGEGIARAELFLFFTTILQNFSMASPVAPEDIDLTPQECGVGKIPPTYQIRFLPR
UniProt P08684, whole entry: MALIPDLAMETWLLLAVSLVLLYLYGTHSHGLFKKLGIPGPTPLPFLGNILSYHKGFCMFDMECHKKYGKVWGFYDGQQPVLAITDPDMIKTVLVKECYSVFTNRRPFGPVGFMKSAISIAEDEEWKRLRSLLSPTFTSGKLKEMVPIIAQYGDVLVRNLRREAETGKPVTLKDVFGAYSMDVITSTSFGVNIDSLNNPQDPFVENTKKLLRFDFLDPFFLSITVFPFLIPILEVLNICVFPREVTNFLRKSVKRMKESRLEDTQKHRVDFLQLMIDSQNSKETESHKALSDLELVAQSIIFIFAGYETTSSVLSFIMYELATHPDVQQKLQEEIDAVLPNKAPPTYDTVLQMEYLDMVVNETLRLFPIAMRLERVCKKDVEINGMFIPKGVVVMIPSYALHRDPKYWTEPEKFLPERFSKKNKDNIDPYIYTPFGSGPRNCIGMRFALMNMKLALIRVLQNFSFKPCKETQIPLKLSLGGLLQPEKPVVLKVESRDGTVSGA
UniProt P10635, whole entry: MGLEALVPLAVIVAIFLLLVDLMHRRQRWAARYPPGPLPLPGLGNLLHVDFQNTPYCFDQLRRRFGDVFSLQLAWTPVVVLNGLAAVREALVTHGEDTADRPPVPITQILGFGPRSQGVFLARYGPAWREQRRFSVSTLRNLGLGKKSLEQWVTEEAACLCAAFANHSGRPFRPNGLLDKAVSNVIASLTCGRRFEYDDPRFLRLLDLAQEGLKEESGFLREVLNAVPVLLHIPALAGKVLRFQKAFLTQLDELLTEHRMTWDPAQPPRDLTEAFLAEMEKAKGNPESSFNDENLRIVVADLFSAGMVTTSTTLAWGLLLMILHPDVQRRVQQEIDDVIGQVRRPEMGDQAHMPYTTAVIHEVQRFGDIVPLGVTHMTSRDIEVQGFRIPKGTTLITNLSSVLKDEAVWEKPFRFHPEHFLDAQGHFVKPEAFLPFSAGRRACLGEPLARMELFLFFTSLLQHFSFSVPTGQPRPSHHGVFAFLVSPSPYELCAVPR
UniProt P05181: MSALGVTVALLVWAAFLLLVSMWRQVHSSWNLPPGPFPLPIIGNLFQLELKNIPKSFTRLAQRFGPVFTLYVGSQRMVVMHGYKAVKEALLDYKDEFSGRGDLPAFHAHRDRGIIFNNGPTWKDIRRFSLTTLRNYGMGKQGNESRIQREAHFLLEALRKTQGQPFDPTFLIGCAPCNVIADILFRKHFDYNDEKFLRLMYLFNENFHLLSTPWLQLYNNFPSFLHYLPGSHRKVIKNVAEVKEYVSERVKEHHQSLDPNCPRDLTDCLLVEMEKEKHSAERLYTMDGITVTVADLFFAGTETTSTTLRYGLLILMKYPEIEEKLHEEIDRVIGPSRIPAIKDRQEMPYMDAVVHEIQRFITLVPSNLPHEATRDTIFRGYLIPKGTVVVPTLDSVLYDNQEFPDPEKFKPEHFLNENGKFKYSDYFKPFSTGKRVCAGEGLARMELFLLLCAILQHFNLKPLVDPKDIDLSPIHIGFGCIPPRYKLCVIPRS
UniProt P11712, whole entry: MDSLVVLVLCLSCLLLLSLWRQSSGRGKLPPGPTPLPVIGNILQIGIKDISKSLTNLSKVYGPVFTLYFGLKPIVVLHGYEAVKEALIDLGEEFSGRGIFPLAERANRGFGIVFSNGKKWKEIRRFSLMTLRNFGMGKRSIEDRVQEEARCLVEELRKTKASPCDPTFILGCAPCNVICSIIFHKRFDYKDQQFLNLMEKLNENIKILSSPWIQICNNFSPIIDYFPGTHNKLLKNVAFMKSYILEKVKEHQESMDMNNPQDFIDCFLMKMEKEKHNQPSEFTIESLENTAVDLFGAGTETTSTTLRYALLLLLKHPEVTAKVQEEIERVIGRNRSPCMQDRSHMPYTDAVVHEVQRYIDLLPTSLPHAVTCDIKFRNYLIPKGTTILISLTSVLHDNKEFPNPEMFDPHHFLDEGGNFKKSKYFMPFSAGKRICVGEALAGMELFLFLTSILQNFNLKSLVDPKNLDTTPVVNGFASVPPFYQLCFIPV
UniProt P33261, whole entry: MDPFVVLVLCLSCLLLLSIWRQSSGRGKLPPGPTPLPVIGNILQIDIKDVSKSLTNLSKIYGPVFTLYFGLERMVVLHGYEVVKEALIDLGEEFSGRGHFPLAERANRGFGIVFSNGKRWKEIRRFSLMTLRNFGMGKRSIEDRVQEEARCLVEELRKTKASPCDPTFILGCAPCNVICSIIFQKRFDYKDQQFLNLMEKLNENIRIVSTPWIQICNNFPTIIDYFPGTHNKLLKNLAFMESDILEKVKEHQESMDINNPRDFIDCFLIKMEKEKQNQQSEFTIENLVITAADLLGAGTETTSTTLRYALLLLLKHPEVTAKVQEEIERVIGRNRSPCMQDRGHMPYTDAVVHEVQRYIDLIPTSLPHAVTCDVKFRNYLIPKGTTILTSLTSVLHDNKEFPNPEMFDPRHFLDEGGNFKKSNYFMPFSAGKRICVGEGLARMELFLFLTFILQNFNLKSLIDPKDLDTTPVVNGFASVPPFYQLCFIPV

Where two headings read alike, the source gives them in different places.

Series [1] has as its target T1, human CYP2A6 (Homo sapiens (Human), UniProt P11509).
The target in a further series is CYP2B6 (Homo sapiens (Human), UniProt P20813). The series can be described thus: CYP2B6 Vivid blue substrate O-dealkylation inhibition. It is filed as biochemical.
The target in series [2] is T1, human CYP2A6. The series can be described thus: CYP2A6 mediated coumarin 7-hydroxylation inhibition.
In a further series the target is CYP3A4 (Homo sapiens (Human), UniProt P08684). Put plainly: in vitro. As to conditions: pH 7.5. Here is the method:
(§1) To gain insight into the selectivity of the synthetic compounds, nicotine, nicotine related alkaloids and nicotine metabolites for inhibition of other CYPs, we examined the major CYP present in human liver (i.e., CYP 3A4). […] A typical incubation mixture ([…] ), 0.5 mM NADP^+, 2.0 mM G6P, 1 U of G6P dehydrogenase, […] inhibitor was added last as to minimize interaction with the protein. After mixing on ice, the reaction was initiated by the addition of substrate and incubated at 37° C. with shaking in air. Organic extracts were injected onto a Hitachi L-7100 system equipped with a Hitachi L-7400 UV detector. Separations were done with an Altex Ultrasphere ODS (4.6 mm×250 mm, 5 μm) column. The analytes were eluted with an isocratic solvent system consisting of water/acetonitrile/methanol (30:10:60, v/v/v) at a flow rate of 1.0 mL/min. […] Quantification of substrate and metabolite was determined from peak areas of the chromatogram and comparison with standard curves. IC50 values were determined as described below.
(§2) To measure CYP3A4 activity, testosterone 6-hydroxylation was determined.

The target in series [3] is CYP3A4 relative to CYP2A6 (Homo sapiens (Human), UniProt P08684). The series can be described thus: in vitro. Here is the method:
as §1, §2

Series [4] has as its target CYP2D6 relative to CYP2A6 (Homo sapiens (Human), UniProt P10635). The series can be described thus: CYP2D6 Vivid blue substrate O-dealkylation inhibition. It is filed as biochemical.
In series [5] the target is CYP2E1 relative to CYP2A6 (Homo sapiens (Human), UniProt P05181). Put plainly: CYP2E1 Vivid blue substrate O-dealkylation inhibition. Format: biochemical. As to conditions: human CYP2E1 versus human CYP2A6, read-out: Selectivity ratio (IC50 CYPX/IC50 CYP2A6) 2E1/2A6.
Series [6] addresses CYP2C9 relative to CYP2A6 (Homo sapiens (Human), UniProt P11712). Put plainly: CYP2C9 Vivid blue substrate O-dealkylation inhibition. Format: biochemical.
For series [7], the target named is CYP2B6 relative to CYP2A6 (Homo sapiens (Human), UniProt P20813). The series can be described thus: CYP2B6 Vivid blue substrate O-dealkylation inhibition. Format: biochemical. As to conditions: human CYP2B6 versus human CYP2A6, read-out: Selectivity ratio (IC50 CYPX/IC50 CYP2A6) 2B6/2A6.
Series [8] deals with CYP2C19 relative to CYP2A6 (Homo sapiens (Human), UniProt P33261). Put plainly: CYP2C19 Vivid blue substrate O-dealkylation inhibition. It is filed as biochemical.
Setting [9] is: pH 7.5, Selectivity Ratio: IC50 (Inhibition of CYP3A4)/IC50 (Inhibition of CYP2A6).
The mark [10] stands for this setting: pH 7.5, Selectivity ratio (IC50 CYPX/IC50 CYP2A6) 3A4/2A6.

As for 3-(Pyridin-3-yl)pyridine [Compound 31], the IC50 against human CYP2A6 [1] (human, pH 7.5) is 7.44 ± 1.32 µM.
Still for that read-out and setting: the same measure for `NCc1ccc(-c2cccnc2)s1` [Compound 1]: 0.172 ± 0.017 µM.
In the case of `NCc1ccc(-c2cccnc2)s1` [Compound 1a], the IC50 at human CYP2A6 [1] turned out to be 0.17 ± 0.02 µM; on CYP2B6 (Table 4, unit inferred, read-out: 2B6 IC50 ± SD), 52.2 ± 7.6 µM.
Take `CN(C)Cc1ccc(-c2cccnc2)o1` [Compound 2c]: the IC50 on human CYP2A6 [2] (read-out: 2A6 IC50 ± SD, Table 4, unit not given (same data in Table 1 in μM)) was 28.3 ± 18.3 µM.
As to `Cc1cscc1-c1cccnc1` [Compound 17], the “Selectivity ratio (IC50 CYPX/IC50 CYP2A6) 3A4/2A6” value at CYP3A4 came out at 20. In series [3] (setting [9]), the selectivity ratio is less than 13.
With `Cc1cscc1-c1ccc(F)nc1` [Compound 21, 2-Fluoro-5-(4-methylthiophen-3-yl)pyridine], the selectivity ratio at 40 min in series [4] (recombinant CYP2D6 BACULOSOMES, pH 8, probe Vivid blue substrate (10 μM), O-dealkylation, human CYP2D6 versus human CYP2A6, read-out: Selectivity ratio (IC50 CYPX/IC50 CYP2A6) 2D6/2A6) was 227; in series [5] (recombinant CYP2E1 BACULOSOMES, pH 8, probe Vivid blue substrate (10 μM), O-dealkylation), 284; in series [6] (recombinant CYP2C9 BACULOSOMES, pH 8, probe Vivid blue substrate (10 μM), O-dealkylation, human CYP2C9 versus human CYP2A6, read-out: Selectivity ratio (IC50 CYPX/IC50 CYP2A6) 2C9/2A6) it was more than 308; in series [7] (recombinant CYP2B6 BACULOSOMES, pH 8, probe Vivid blue substrate (5 μM), O-dealkylation), 9.1; in series [8] (recombinant CYP2C19 BACULOSOMES, pH 8, probe Vivid blue substrate (10 μM), O-dealkylation, human CYP2C19 versus human CYP2A6, read-out: Selectivity ratio (IC50 CYPX/IC50 CYP2A6) 2C19/2A6), 32. In series [3] (setting [10]), the selectivity ratio is 2.
As for `c1cncc(-c2cccnc2)c1` [Compound 30], the selectivity ratio in series [3] (setting [9]) is more than 61.
`c1cncc(-c2cccnc2)c1` [Compound 31, 3-(Pyridin-3-yl)pyridine]: the selectivity ratio at 40 min in series [4] (pH 8, human CYP2D6 versus human CYP2A6, read-out: Selectivity ratio (IC50 CYPX/IC50 CYP2A6) 2D6/2A6) is more than 45; in [5] (pH 8), 45; in series [6] (pH 8, human CYP2C9 versus human CYP2A6, read-out: Selectivity ratio (IC50 CYPX/IC50 CYP2A6) 2C9/2A6), more than 45; in series [7] (pH 8), 22; in [8] (pH 8, human CYP2C19 versus human CYP2A6, read-out: Selectivity ratio (IC50 CYPX/IC50 CYP2A6) 2C19/2A6), more than 45. Further, in series [3] (setting [10]), the selectivity ratio is 10.
For `NCc1ccc(-c2cccnc2)s1` [Compound 38a, (5-(Pyridin-3-yl)thiophen-2-yl)methanamine], on human CYP2A6 [1] (human, pH 7.5), the IC50 was 0.17 ± 0.02 µM and the Ki is 0.02 ± 0.003 µM. Further, the IC50 at CYP2B6 (insect cell microsomes expressing CYP2B6, 0.2M potassium phosphate buffer, mean of at least 3 determinations ± SD, read-out: IC50 ± SD 2B6) was 52.2 ± 7.6 µM.
For `O/N=C/c1ccc(-c2cccnc2)o1` [Compound 39], the selectivity ratio in [3] (setting [9]) came to 41.
Turning to `O/N=C\c1ccc(-c2cccnc2)o1` [Compound 72], the selectivity ratio in series [3] (setting [9]) was 5.
Take `OCc1ccc(-c2cccnc2)o1` [Compound 81]: the IC50 at human CYP2A6 [2] (read-out: CYP2A6 IC50, coumarin 7-hydroxylation) came to 211 ± 100 µM.
